Assay [1] concerns the target Kappa-type opioid receptor (Cavia porcellus, UniProt P41144).
Assay [2] deals with Delta-type opioid receptor (Homo sapiens, UniProt P41143).
Assay [3] addresses Kappa-type opioid receptor (Homo sapiens, UniProt P41145).
In assay [4] the target is Mu-type opioid receptor (Homo sapiens, UniProt P35372).
The target in assay [5] is Mu-type opioid receptor (Cavia porcellus, UniProt P97266).
Assay [6] concerns the target Delta-type opioid receptor (Sus scrofa, UniProt P79291).

Amino acid sequences for entries named in this document (tags omitted). A change or cut given only in a name is not applied to a line headed by its entry.
UniProt P41144: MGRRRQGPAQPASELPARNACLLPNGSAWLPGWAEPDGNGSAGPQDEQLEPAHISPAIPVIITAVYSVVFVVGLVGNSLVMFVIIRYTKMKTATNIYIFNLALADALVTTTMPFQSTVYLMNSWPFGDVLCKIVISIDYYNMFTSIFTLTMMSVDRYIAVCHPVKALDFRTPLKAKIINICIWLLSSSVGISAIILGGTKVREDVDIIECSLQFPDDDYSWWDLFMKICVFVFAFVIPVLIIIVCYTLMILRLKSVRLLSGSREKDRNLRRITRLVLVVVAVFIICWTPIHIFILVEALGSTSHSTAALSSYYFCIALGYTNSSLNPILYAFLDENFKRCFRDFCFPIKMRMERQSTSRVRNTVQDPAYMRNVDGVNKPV
UniProt P41143, whole entry: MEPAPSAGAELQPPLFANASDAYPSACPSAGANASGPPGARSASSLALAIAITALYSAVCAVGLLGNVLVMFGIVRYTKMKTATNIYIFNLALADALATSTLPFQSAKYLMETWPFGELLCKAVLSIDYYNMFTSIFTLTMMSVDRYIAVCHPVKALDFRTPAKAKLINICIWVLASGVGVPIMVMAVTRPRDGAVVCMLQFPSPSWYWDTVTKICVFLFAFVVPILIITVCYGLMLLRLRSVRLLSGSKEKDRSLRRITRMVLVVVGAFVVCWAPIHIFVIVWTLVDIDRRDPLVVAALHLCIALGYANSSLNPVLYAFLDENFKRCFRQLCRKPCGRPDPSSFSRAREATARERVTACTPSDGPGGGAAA
UniProt P41145: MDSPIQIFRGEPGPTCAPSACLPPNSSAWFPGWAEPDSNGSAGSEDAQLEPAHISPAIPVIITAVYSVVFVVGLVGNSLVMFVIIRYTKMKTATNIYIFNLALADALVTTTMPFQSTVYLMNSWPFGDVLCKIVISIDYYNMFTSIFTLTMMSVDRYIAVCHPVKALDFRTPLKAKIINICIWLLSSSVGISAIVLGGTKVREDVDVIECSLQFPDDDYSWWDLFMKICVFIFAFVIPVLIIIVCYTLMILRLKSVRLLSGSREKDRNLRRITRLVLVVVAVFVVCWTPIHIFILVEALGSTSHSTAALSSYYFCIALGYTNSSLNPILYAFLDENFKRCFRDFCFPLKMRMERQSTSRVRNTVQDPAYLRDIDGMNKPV
UniProt P35372, whole entry: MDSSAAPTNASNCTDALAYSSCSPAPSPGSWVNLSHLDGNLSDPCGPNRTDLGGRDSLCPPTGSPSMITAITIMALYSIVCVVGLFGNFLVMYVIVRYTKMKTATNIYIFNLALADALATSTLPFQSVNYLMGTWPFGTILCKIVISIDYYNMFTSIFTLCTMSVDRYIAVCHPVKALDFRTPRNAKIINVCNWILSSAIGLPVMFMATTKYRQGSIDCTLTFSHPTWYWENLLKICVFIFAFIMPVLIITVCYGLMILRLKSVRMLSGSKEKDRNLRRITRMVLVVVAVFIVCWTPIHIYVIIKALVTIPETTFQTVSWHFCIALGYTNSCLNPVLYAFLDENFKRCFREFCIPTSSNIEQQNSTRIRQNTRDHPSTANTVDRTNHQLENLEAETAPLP
UniProt P97266, whole entry: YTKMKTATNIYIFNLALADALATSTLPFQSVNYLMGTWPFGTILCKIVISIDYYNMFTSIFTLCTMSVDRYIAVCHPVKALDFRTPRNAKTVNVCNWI
UniProt P79291, whole entry: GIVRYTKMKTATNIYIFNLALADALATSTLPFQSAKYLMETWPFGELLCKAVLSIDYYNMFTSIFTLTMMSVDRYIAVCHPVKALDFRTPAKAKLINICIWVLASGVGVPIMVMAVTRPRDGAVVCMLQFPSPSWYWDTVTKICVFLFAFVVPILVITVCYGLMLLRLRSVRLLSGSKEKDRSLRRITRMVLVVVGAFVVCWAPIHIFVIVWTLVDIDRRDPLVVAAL

SMILES strings stand for the structures.

Turning to `N[C@@H](Cc1ccc(O)cc1)C(=O)N1Cc2ccccc2C[C@H]1CN[C@@H](Cc1ccccc1)C(=O)N[C@@H](Cc1ccccc1)C(=O)O` [TIPP-PSI], the inhibition constant (Ki) (in general, a measure of affinity in units of concentration, obtained from inhibition or displacement) in assay [1] was > 10 µM; in assay [2], 0.001 µM; in assay [3] it was > 10 µM; at Mu-type opioid receptor [4], > 10 µM; on Mu-type opioid receptor [5], > 10 µM; in assay [6], 0.0006 µM.

(Values after BindingDB's records for PubMed 9686407 (Sri International, 1998).)
